Results from PubChem BioAssay AID1259318 (Sanford-Burnham Center for Chemical Genomics, 2017).
The list shows a part of the results, in another mix than the full data. Some structures show a salt or complex split into parts, the way the source records it. Calls of active or inactive are those of the source.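 Rule for the calls: active = activity above about 14% (limit read from the data; passing the limit was not always enough); inactive = the rest.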

Sequences of proteins named here, by UniProt entry; tags and fusion partners are left off.
UniProt P20393, whole entry, looked up: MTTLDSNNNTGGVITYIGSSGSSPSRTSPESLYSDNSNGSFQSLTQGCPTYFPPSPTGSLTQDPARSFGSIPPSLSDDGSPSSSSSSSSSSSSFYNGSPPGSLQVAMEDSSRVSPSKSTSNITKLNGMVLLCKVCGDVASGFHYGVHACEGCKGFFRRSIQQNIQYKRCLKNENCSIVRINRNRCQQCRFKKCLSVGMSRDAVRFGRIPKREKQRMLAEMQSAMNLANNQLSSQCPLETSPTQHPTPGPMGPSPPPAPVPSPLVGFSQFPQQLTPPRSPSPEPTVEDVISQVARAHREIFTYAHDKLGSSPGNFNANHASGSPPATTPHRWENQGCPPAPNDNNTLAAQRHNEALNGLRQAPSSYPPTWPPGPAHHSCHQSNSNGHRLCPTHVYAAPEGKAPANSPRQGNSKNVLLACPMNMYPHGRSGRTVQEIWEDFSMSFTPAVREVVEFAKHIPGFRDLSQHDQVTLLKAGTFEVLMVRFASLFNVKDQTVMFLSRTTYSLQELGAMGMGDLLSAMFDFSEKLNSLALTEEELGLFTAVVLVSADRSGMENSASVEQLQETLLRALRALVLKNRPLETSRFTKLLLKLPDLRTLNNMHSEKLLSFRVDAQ

What follows are compounds tested against Nuclear receptor subfamily 1 group D member 1 (Homo sapiens) (UniProt P20393) (assay: modulators of Rev-erb alpha DNA binding, primary screen, biochemical, FITC-DNA, fluorescence polarization, uHTS (AID 1259318;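 note: 0% = DMSO wells with 35 nM protein and 100% = DMSO wells with 750 nM protein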)). Details: Rev-erbα–FITC-DNA binding, 90 min, at 10 µM, hits give high values.
`CP(=O)(OC12CC3CC(CC(C3)C1)C2)OC12CC3CC(CC(C3)C1)C2` was tested, and the activity was inactive: 4.76%.
With `CCOC(=O)c1ccc(NP(C)(=O)Oc2ccc(Cl)cc2)cc1` (stereo not drawn) the activity was inactive: -0.04%.
For `Nc1ccc2c(ccc3cccnc32)n1.O=[N+]([O-])c1cc([N+](=O)[O-])c(O)c([N+](=O)[O-])c1`, the activity was inactive: -1.71%.
`CP(=O)(Oc1ccccc1)N1CCOC1=O` (stereo not drawn) was tested, and the activity was inactive: -3.81%.
With `CCc1ccc(OP(C)(=O)Nc2cccnc2)cc1` (stereo not drawn) the activity was inactive: -5.62%.
`COc1ccccc1OP(C)(=O)Nc1c(C)n(C)n(-c2ccccc2)c1=O` (stereo not drawn) was tested, and the activity was inactive: -0.63%.
`OCCSCCO` was tested, and the activity was inactive: -2.21%.
With `O=C(OCCCN1CCCC1)C(O)(c1ccccc1)C1CCCCC1` (stereo not drawn) the activity was inactive: -2.97%.
For `COc1ccc(OP(C)(=O)Nc2ccc(Br)cc2)cc1` (stereo not drawn), the activity was inactive: -2.56%.
With `CN(C)C(=O)c1c([N+](=O)[O-])cc([N+](=O)[O-])cc1[N+](=O)[O-]` the activity was inactive: -1.17%.
`CP(=O)(Nc1ccc(Cl)cc1)Oc1ccc(F)cc1` (stereo not drawn) was tested, and the activity was inactive: 0.16%.
In the case of `COc1ccccc1OP(C)(=O)Nc1ccccc1Br` (stereo not drawn), the activity was inactive: -3.48%.
For `CC(C)(C)c1ccc(OP(C)(=O)O)cc1`, the activity was inactive: -4.3%.
`CN(C)CCOC(=O)C(O)(c1ccccc1)C1CCCC1` (stereo not drawn) was tested, and the activity was inactive: 5.27%.
`COc1ccc(OP(C)(=O)Nc2ccccn2)cc1` (stereo not drawn) was tested, and the activity was inactive: -0.22%.
`COc1ccccc1OP(C)(=O)Nc1ccc(Br)cc1` (stereo not drawn) was tested, and the activity was inactive: 1.25%.
In the case of `CCc1ccc(OP(C)(=O)O)cc1`, the activity was inactive: -1.75%.
For `CP(=O)(Nc1ccccn1)Oc1ccccc1` (stereo not drawn), the activity was inactive: 3.92%.
In the case of `COc1ccccc1OP(C)(=O)Nc1ccc(C)cc1C` (stereo not drawn), the activity was inactive: -3.58%.
With `Cc1c(NP(C)(=O)Oc2ccc(C(C)C)cc2)c(=O)n(-c2ccccc2)n1C` (stereo not drawn) the activity was inactive: 2.47%.
In the case of `O=[N+]([O-])c1cc([N+](=O)[O-])c(Nc2ccccn2)c([N+](=O)[O-])c1`, the activity was inactive: -3.73%.
For `COc1ccc(OP(C)(=O)Nc2ccccc2Br)cc1` (stereo not drawn), the activity was inactive: 0.88%.
With `COc1ccccc1OP(C)(=O)Nc1ccc(C)c(C)c1` (stereo not drawn) the activity was inactive: -0.71%.
With `O=C1C(O)=C([N+](=O)[O-])C(=O)C(O)=C1[N+](=O)[O-]` the activity was inactive: -12.6%.
With `Cc1cc(C)cc(OP(C)(=O)Nc2cccc(C(F)(F)F)c2)c1` (stereo not drawn) the activity was inactive: 2.63%.
For `CCCCCCCCCCCCCCCC1C[N+](C)(C)CCOP(C)(=O)O1` (stereo not drawn), the activity was inactive: -0.78%.
In the case of `CP(=O)(Nc1ccc(Cl)cc1Cl)Oc1ccccc1` (stereo not drawn), the activity was inactive: -1.84%.
In the case of `CP(=O)(OCCOc1ccccc1)OCCOc1ccccc1`, the activity was inactive: 1.44%.
For `COc1ccc(OP(C)(=O)Nc2ccc(SC(F)(F)F)cc2)cc1` (stereo not drawn), the activity was inactive: 6.13%.
With `CCOC(=O)c1ccc(NP(C)(=O)Oc2ccc(F)cc2)cc1` (stereo not drawn) the activity was inactive: -2.03%.
`CCN(CC)CCCNc1ccccc1[N+](=O)[O-].O=[N+]([O-])c1cc([N+](=O)[O-])c(O)c([N+](=O)[O-])c1` was tested, and the activity was inactive: 0.47%.
In the case of `CCCCCOc1ccc(NP(C)(=O)Oc2ccc(Cl)cc2Cl)cc1` (stereo not drawn), the activity was inactive: 2.7%.
With `O=[N+]([O-])c1cc([N+](=O)[O-])c(OC2CCCCC2O)c([N+](=O)[O-])c1` (stereo not drawn) the activity was inactive: 4.68%.
For `CP(=O)(Nc1ccccc1)Oc1ccc(F)cc1` (stereo not drawn), the activity was inactive: 1.55%.
With `CCN(CC)CCCOC(=O)C(O)(c1ccccc1)C1CCCCC1` (stereo not drawn) the activity was inactive: -0.3%.
In the case of `Cc1c([N+](=O)[O-])cc([N+](=O)[O-])c(Br)c1[N+](=O)[O-]`, the activity was inactive: 0.63%.
In the case of `CC(C)c1ccc(OP(C)(=O)Nc2ccc(SC(F)(F)F)cc2)cc1` (stereo not drawn), the activity was inactive: 2.11%.
`CP(=O)(Nc1ccccc1F)Oc1ccccc1` (stereo not drawn) was tested, and the activity was inactive: -2.51%.
For `O=[N+]([O-])c1cc([N+](=O)[O-])c(Nc2ccc(Cl)cc2)c([N+](=O)[O-])c1`, the activity was inactive: 1.5%.
In the case of `COc1ccc2c(c1O)-c1c(O)c(OC)cc3c1[C@H](C2)[N+](C)(C)CC3.O=[N+]([O-])c1cc([N+](=O)[O-])c([O-])c([N+](=O)[O-])c1[O-]`, the activity was inactive: -8.31%.
`O=C(OCCN1CCN(CCOCc2ccccc2)CC1)C(O)(c1ccccc1)c1ccccc1` was tested, and the activity was inactive: -0.36%.
With `O=C(OC1CN2CCC1CC2)c1ccc([N+](=O)[O-])cc1` (stereo not drawn) the activity was inactive: -2.47%.
For `CCOP(=O)(CC)OCC`, the activity was inactive: -2.75%.
`CCOP(C)(=S)SCC(=O)NC(C)(CC)C(=O)O` (stereo not drawn) was tested, and the activity was inactive: 2.7%.
In the case of `CP(=O)(Nc1ccc(SC(F)(F)F)cc1)Oc1ccc(F)cc1` (stereo not drawn), the activity was inactive: 0.77%.
With `O=[N+]([O-])c1cc([N+](=O)[O-])c(C(F)(F)F)c([N+](=O)[O-])c1O` the activity was inactive: -1.67%.
In the case of `Cc1ccccc1NP(C)(=O)Nc1ccccc1C`, the activity was inactive: 5.1%.
With `CP(=O)(Nc1ccc2c(c1)OCCO2)Oc1ccccc1` (stereo not drawn) the activity was inactive: 2.18%.
In the case of `COc1ccc(NP(C)(=O)Oc2ccccc2OC)cc1` (stereo not drawn), the activity was inactive: 3.86%.
`CN(C)CCOC(=O)C(O)(c1ccccc1)C1CCCCC1` (stereo not drawn) was tested, and the activity was inactive: 6.69%.
For `COc1ccc(OP(C)(=O)Nc2cccc(Br)c2)cc1` (stereo not drawn), the activity was inactive: -5.5%.
With `Cc1c(C(c2ccc3c(c2)OCO3)c2c(C)n(C)n(-c3ccccc3)c2=O)c(=O)n(-c2ccccc2)n1C.O=[N+]([O-])c1cc([N+](=O)[O-])c(O)c([N+](=O)[O-])c1` the activity was inactive: -3.22%.
In the case of `O=[N+]([O-])c1cc([N+](=O)[O-])c(NCC2CCS(=O)(=O)C2)c([N+](=O)[O-])c1` (stereo not drawn), the activity was inactive: -0.56%.
With `Cc1cc(-c2cccc3ccccc23)c(C)cn1.O=[N+]([O-])c1cc([N+](=O)[O-])c(O)c([N+](=O)[O-])c1` the activity was inactive: 4.53%.
In the case of `O=[N+]([O-])c1ccc(OP2(=O)COCCO2)cc1` (stereo not drawn), the activity was inactive: -2.25%.
With `O=[N+]([O-])c1cc([N+](=O)[O-])c(Nc2nnnn2CCO)c([N+](=O)[O-])c1` the activity was inactive: 4.76%.
With `CCOC(=O)C(CC)C1=NC(C)(C)Cc2ccccc21.O=[N+]([O-])c1cc([N+](=O)[O-])c(O)c([N+](=O)[O-])c1` (stereo not drawn) the activity was inactive: -1.87%.
With `CCCOc1ccc(NP(C)(=O)Oc2ccc(Cl)cc2)cc1` (stereo not drawn) the activity was inactive: -3.7%.
With `CP(=O)(Nc1ccc(SC(F)(F)F)cc1)Oc1ccccc1` (stereo not drawn) the activity was inactive: 3.21%.
In the case of `COc1ccc(-c2ccccn2)cc1.O=[N+]([O-])c1cc([N+](=O)[O-])c(O)c([N+](=O)[O-])c1`, the activity was inactive: 2.81%.
For `COc1ccccc1OP(C)(=O)Nc1c(C)cccc1C` (stereo not drawn), the activity was inactive: 4.54%.
In the case of `CN1CCCCC1COC(=O)C1(O)c2ccccc2CCc2ccccc21` (stereo not drawn), the activity was inactive: 3.67%.
In the case of `CN(Cc1cccnc1)C(=O)COc1ccc(Cl)c(Cl)c1.O=[N+]([O-])c1cc([N+](=O)[O-])c(O)c([N+](=O)[O-])c1`, the activity was inactive: -1.55%.
With `O=[N+]([O-])c1cc([N+](=O)[O-])c(-n2nnc3ccccc32)c([N+](=O)[O-])c1` the activity was inactive: -0.2%.
With `Cc1nc2ccc3ccccc3c2s1.O=[N+]([O-])c1cc([N+](=O)[O-])c(O)c([N+](=O)[O-])c1` the activity was inactive: 9.03%.
With `O=[N+]([O-])c1cc([N+](=O)[O-])c(-c2cnn(-c3ccccc3)c2)c([N+](=O)[O-])c1` the activity was inactive: 2.83%.
In the case of `Cc1cc(C)cc(OP(C)(=O)Nc2ccc(C)cc2C)c1` (stereo not drawn), the activity was inactive: -2.32%.
`CCOC(=O)c1ccc(NP(C)(=O)Oc2cc(C)cc(C)c2)cc1` (stereo not drawn) was tested, and the activity was inactive: 4.62%.
With `COc1ccccc1OP(C)(=O)Nc1cccc(Br)c1` (stereo not drawn) the activity was inactive: 3.19%.
For `Cc1cc(C)cc(OP(C)(=O)Nc2ccccn2)c1` (stereo not drawn), the activity was inactive: -0.64%.
For `CP(=O)(Nc1cccc(Br)c1)Oc1ccccc1` (stereo not drawn), the activity was inactive: -8.96%.
For `Cc1ccc(C)c(NP(C)(=O)Oc2ccccc2)c1` (stereo not drawn), the activity was inactive: 0.21%.
For `O=C(O)c1cccc(Nc2c([N+](=O)[O-])cc([N+](=O)[O-])cc2[N+](=O)[O-])c1`, the activity was inactive: 5.56%.
In the case of `CC1=NCCc2c1[nH]c1ccccc21.O=[N+]([O-])c1cc([N+](=O)[O-])c(O)c([N+](=O)[O-])c1`, the activity was inactive: 0.45%.
In the case of `CC(C)(C)c1ccc(OP(C)(=O)Nc2ccc(SC(F)(F)F)cc2)cc1` (stereo not drawn), the activity was inactive: 1.71%.
With `Cc1cccc(C)c1OP(C)(N)=O` (stereo not drawn) the activity was inactive: -0.01%.
For `O=[N+]([O-])c1ccc2c(c1)C=Nc1ccccc1O2`, the activity was inactive: 0.58%.
`O=[N+]([O-])c1cc([N+](=O)[O-])c(Nc2cccnc2)c([N+](=O)[O-])c1` was tested, and the activity was inactive: 1.26%.
In the case of `COc1ccccc1OP(C)(=O)Nc1cc(Cl)ccc1C` (stereo not drawn), the activity was inactive: -6.69%.
In the case of `COc1ccc(OP(C)(=O)Nc2cccc(F)c2)cc1` (stereo not drawn), the activity was inactive: 1.34%.
`Cc1cc(C)cc(OP(C)(N)=O)c1` (stereo not drawn) was tested, and the activity was inactive: 3.28%.
`CCOC(=O)c1ccc(NP(C)(=O)Oc2ccccc2)cc1` (stereo not drawn) was tested, and the activity was inactive: 0.34%.
With `COc1ccccc1OP(C)(=O)Nc1ccc(C)cc1` (stereo not drawn) the activity was inactive: -0.73%.
For `Cc1ccc(NP(C)(=O)Oc2ccccc2)c(C)c1` (stereo not drawn), the activity was inactive: -8.56%.
In the case of `COc1ccccc1-c1ccccn1.O=[N+]([O-])c1cc([N+](=O)[O-])c(O)c([N+](=O)[O-])c1`, the activity was inactive: -1.3%.
In the case of `CP(=O)(NC(=O)Nc1ccccc1)Oc1ccccc1` (stereo not drawn), the activity was inactive: 1.93%.
For `CCc1ccc(OP(C)(=O)N2CCN(c3ccc([N+](=O)[O-])cc3)CC2)cc1` (stereo not drawn), the activity was inactive: 1.27%.
For `Cc1cc(C)cc(OP(C)(=O)Nc2ccc(SC(F)(F)F)cc2)c1` (stereo not drawn), the activity was inactive: 9.14%.
For `Cc1cccc(C)c1OP(C)(=O)Nc1ccc(SC(F)(F)F)cc1` (stereo not drawn), the activity was inactive: -2.25%.
For `CP(=O)(Nc1ccc(SC(F)(F)F)cc1)Oc1ccc(Cl)cc1` (stereo not drawn), the activity was inactive: 1.05%.
In the case of `CP(=O)(Oc1ccccc1)OC(c1ccccc1)C(F)(F)F` (stereo not drawn), the activity was inactive: -2.22%.
In the case of `CP(=O)(Nc1ccccn1)Oc1ccc(Cl)cc1` (stereo not drawn), the activity was inactive: -2.26%.
With `CCOP(C)(=S)SCC(=O)NC(C)C(=O)O` (stereo not drawn) the activity was inactive: -1.38%.
With `CCOC(=O)c1ccc(NP(C)(=O)Oc2ccc(OC)cc2)cc1` (stereo not drawn) the activity was inactive: 1.52%.
In the case of `O=[N+]([O-])c1cc([N+](=O)[O-])c(O)c([N+](=O)[O-])c1.c1ccc(Oc2ccncc2)cc1`, the activity was inactive: 2.73%.
With `COc1ccccc1OP(C)(=O)Nc1ccccc1` (stereo not drawn) the activity was inactive: 6.51%.
With `CP(=O)(Nc1ccccc1Br)Oc1ccccc1` (stereo not drawn) the activity was inactive: 6.61%.
In the case of `CP(=S)(Nn1cnnc1)Oc1ccccc1` (stereo not drawn), the activity was inactive: -3.48%.
